Measurements published in paper PMC8663791 (2021).

Columns and labels:
[1] = target: T1, GAD65 377-396 peptide on HLA-DRB1*04:01 (human); test: activation reporter or marker
T1 peptide: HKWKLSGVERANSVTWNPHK

[2] = target: T2, GAD65 273-292 peptide on HLA-DRB1*04:01 (human); test: activation reporter or marker
T2 peptide: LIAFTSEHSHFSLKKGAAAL

B1: Clone_109 (TCR)
alpha TRAV29DV5 TRAJ34 CDR3: CAATTDKLIF
beta TRBV7-2 TRBJ2-1 CDR3: CASSLAYGTHRYNEQFF
binding result [1]: recognises

B2: Clone_244 (TCR)
alpha TRAV23DV6 TRAJ34 CDR3: CAASEPDKLIF
beta TRBV27 TRBJ1-2 CDR3: CASSSQGANYGYTF
binding result [2]: recognises
